# Experimental data taken from patent US5968817A, “DNA encoding serotonin receptors” (priority 1993, dated 1999).
# The chains behind the UniProt entries cited, without tags or fusion partners. Residues count along the entry.
# UniProt P32305, 1-435: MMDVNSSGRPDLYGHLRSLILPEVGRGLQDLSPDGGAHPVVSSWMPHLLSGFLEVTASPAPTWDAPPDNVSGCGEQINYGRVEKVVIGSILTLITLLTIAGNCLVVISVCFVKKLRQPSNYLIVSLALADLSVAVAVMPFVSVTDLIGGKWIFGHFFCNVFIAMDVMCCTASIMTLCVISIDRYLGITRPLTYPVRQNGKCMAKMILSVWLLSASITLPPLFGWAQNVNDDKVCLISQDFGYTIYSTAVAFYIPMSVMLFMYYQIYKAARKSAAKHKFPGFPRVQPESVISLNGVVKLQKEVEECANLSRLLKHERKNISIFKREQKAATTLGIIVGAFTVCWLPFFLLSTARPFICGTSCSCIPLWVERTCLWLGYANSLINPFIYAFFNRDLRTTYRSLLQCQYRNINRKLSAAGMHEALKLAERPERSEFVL
# UniProt P35365, whole entry S4C/P322A: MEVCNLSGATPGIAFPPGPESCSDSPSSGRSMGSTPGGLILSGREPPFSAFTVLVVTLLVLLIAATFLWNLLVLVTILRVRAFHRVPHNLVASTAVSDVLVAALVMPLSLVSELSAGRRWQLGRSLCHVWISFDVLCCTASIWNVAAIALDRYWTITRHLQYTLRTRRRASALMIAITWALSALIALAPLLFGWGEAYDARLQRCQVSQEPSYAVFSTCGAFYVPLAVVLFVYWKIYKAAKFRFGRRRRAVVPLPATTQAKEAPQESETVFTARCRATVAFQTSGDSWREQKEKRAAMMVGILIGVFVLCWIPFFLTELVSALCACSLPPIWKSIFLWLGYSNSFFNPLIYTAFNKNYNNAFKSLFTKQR
# UniProt P35364, whole entry: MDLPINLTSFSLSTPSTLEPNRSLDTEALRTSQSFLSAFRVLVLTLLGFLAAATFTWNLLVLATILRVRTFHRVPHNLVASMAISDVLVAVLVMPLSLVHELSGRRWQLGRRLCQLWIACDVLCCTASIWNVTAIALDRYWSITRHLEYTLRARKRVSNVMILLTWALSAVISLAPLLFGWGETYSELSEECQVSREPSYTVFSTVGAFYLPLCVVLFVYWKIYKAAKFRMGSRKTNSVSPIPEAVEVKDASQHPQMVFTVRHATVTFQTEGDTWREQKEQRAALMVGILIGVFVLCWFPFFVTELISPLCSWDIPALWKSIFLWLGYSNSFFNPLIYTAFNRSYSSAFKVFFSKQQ
# Where two headings read alike, the source gives them in different places.
# What was measured:
# [1] = biological target: T1, MR77 serotonin receptor (5-HT1E-Like) (Rattus norvegicus, UniProt P30940); experiment: [125I]-LSD competition binding to membranes of CosM6 cells expressing MR77; settings: 1 nM [125I]-LSD, 60 min 37° C.
# T1 construct: expressed in transfected cells; host or cells: CosM6 (subclone of COS-7), transient, vector pCMV4
# T1 sequence (P30940 1-366): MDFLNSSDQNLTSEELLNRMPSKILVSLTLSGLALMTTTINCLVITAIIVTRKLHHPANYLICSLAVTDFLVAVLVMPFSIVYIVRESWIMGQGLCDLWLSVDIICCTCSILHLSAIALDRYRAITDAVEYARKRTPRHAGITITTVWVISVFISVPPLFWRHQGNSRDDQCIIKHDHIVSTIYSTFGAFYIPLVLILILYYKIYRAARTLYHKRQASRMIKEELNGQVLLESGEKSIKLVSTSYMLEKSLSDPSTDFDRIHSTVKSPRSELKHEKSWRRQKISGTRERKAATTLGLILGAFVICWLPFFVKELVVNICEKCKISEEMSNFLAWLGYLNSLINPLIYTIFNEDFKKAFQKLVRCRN
# [2] = biological target: T2, REC20 serotonin receptor (5-HT6) (Rattus norvegicus, UniProt P32305); experiment: [125I]-LSD competition binding to membranes of CosM6 cells expressing REC20; settings: 1 nM [125I]-LSD, 60 min 37° C.
# T2 construct: encodes a putative protein of 435 amino acids; expressed in transfected cells; host or cells: CosM6 (subclone of COS-7), transient, vector pCMV4
# [3] = biological target: T3, MR22 serotonin receptor (5-HT5β) (Rattus norvegicus, UniProt P35365); experiment: [125I]-LSD competition binding to membranes of CosM6 cells expressing MR22
# T3 construct: contains an open reading frame (ORF) encoding 370 amino acids; expressed in transfected cells; host or cells: CosM6 (subclone of COS-7), transient, vector pCMV4
# [4] = biological target: T4, REC17 serotonin receptor (5-HT5α) (Rattus norvegicus, UniProt P35364); experiment: [125I]-LSD competition binding to membranes of CosM6 cells expressing REC17
# T4 construct: contains an ORF encoding 357 amino acids; expressed in transfected cells; host or cells: CosM6 (subclone of COS-7), transient, vector pCMV4
SMILES,IC50 [1] [nM],IC50 [3] [nM],further results
CCCN(CCC)C1CCc2cccc(O)c2C1 (centres unmarked) [Ligand 8-OH-DPAT],> 1000,–,–
CSc1ccc2c(c1)C(N1CCN(C)CC1)Cc1ccccc1S2 (centres unmarked) [Methiothepin],–,–,"IC50 [2]: 1.3 nM; IC50 ([3]; CosM6 membranes, 1 nM [125I]-LSD, 60 min 37° C., read-out: IC50 for competition with 125I-LSD, MR22): 176 nM"
COC(=O)[C@@H]1[C@H]2C[C@H]3c4[nH]c5ccccc5c4CCN3C[C@@H]2CC[C@@H]1O [Yohimbine],–,> 1000,–
CN1C[C@H](C(=O)N[C@]2(C)O[C@@]3(O)[C@@H]4CCCN4C(=O)[C@H](Cc4ccccc4)N3C2=O)C=C2c3cccc4[nH]cc(c34)C[C@H]21 [Ergotamine],–,–,IC50 [4]: 10 nM; sensitivity of REC17 to the ligand (in words) [4]: sensitive
"NCCc1c[nH]c2ccc(O)cc12 [Ligand 5-HT, 5-hydroxytryptamine]",–,1610,–
CNS(=O)(=O)Cc1ccc2[nH]cc(CCN(C)C)c2c1 [Sumatriptan],67,–,–
